The values that follow come from article PMC8333062, “Chemical tools for epichaperome-mediated interactome dysfunctions of the central nervous system” (Nature Communications, 2021).

A short description of the data set: PAMPA-BBB permeability. On the technique in general: PAMPA measures passive passage across an artificial lipid membrane.

`Cn1c(=O)c2c(ncn2C)n(C)c1=O` [caffeine, reference compound]: the “PAMPA-BBB (PB) permeability Pe” value was 4.7 ± 0.1 10^−6 cm s^−1.
